# scFv variants of Ab-14 (heavy chain) against a SARS-CoV-2 spike peptide

The target is the same throughout: PDVDLGDISGINAS, from the HR2 region of SARS-CoV-2 spike.

The variants keep the light chain, the linker and the frameworks of Ab-14 (scFv order VH, three GGGGS repeats, VL).
VH: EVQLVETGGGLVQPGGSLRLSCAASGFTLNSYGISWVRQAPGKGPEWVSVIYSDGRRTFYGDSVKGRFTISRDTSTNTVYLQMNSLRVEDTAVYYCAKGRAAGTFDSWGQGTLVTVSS
VL: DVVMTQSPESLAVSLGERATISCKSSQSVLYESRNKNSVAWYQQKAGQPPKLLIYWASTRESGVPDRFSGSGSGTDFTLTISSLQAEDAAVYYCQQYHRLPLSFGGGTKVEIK

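The variants were designed computationally from a first round of random CDR variants and then made and measured. Group labels follow the data file (Ctrl: baseline library sampled from a position-specific scoring matrix, with some repeated check sequences; Rand: our label for a block that the file lists under HC and that is probably the random mutants of the ten best first-round binders; En: ensemble of fine-tuned language models; GP: Gaussian process model; GPLM: also part of the Gaussian process libraries; HC: hill climbing; Gen: genetic algorithm; Gibbs: Gibbs sampling; a sequence that several methods proposed may carry one label only). Affinity was read by AlphaSeq, a pooled yeast mating assay with surface-displayed partners. Binding brings cells together so that they mate, and sequencing counts the barcode pairs among the diploids. The ratio of observed to expected reads was calibrated, replicate by replicate, on BCL2-family standards whose Kd was known from biolayer interferometry. Mating was done six times.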

The parent's heavy chain CDRs are GFTLNSYGIS, VIYSDGRRTFYGDSVK, GRAAGTFDS; each variant's own CDRs replace them letter for letter.
Affinities are written as log10 Kd with Kd in nM; a lower number is a better binder.
Averages over replicates are reported, and they cover detected replicates only.
A pair that was not seen in any replicate is written "not detected"; this usually means weak binding, but a binder can also be missed.
The authors averaged sequences with at least three values out of six and counted those with two or fewer as poor binders.
A sequence measured in both rounds can read differently, since the two assays cover different ranges.
Background: pairings of all heavy chain designs with three empty control strains gave a value in 1% of cases (median 2.08, 5th percentile 0.84). Values in that range, when seen in few replicates, are hard to tell from nonspecific mating.
Some sequences occur more than once in the pool; their replicates are pooled.
The parent sequence was in this pool as ten entries: three were never detected, three once, and four in most replicates, with averages from 0.34 to 2.37.

"log10 Kd (nM), mean",seen in,CDR-H1,CDR-H2,CDR-H3,group
1.19,2 of 6,GFTLNDYGIS,VIYSDGRRTFMGDSVK,GRAAGTFDS,Ctrl
not detected,0 of 6,GFSLNLYGIS,VIYSDGRRTFYGDSVK,GRAQGTFDS,Ctrl
0.30,6 of 6,GFDLNEYGIS,VIYADGVRTAYSDSVK,GGNAGTFDS,En_HC
1.35,3 of 6,GFSLNSYGIS,VIYSDGRRTFYHDRVK,GEAAGTFDS,GP_Gibbs
-0.74,6 of 6,GFNLNSYGIS,VIYSDGRRTFYGDSVK,GQVAGTFDS,GPLM_Gibbs
not detected,0 of 6,GNVLDEFGIS,VIYADGMRTAYAQDVK,GITGDNFMT,En_Gibbs
1.19,6 of 6,GFVLNNYGIS,VIYSDGRRTFYGDSVK,GQTAGTFDA,GP_Gibbs
not detected,0 of 6,GFTLNSYPIS,VIYSDGRRTGYADSVK,ARAAVTFDS,Ctrl
not detected,0 of 6,GFTLNSYGRS,VIYSDGRRTFYGDSVK,GRAAGSFDS,Ctrl
not detected,0 of 6,GFTLNSYGIS,VIYSDGRRTQYGDSVK,GRAAGTFHS,Ctrl
-0.49,6 of 6,GFTLNSYGIS,VIYADGRRTFYGDSVK,GEAAGTFDA,GPLM_Gen
0.54,6 of 6,KFTLNEYGIS,VIYSDGRRTFYGDSVK,GRIAGTFDS,GP_HC
0.41,6 of 6,GFSLNMYGIS,VIYSDGRRTFYGDSVK,GRQAGTFDS,GPLM_Gibbs
not detected,0 of 6,GFTLNSYLIS,VIYSDGRRTFYDDSVK,GQLAGTIDS,Rand
0.88,6 of 6,GFDIEEFGIS,VIYADGQRLAYADEVK,GENAGSFDM,En_Gibbs
0.43,5 of 6,GFDLNEYGIS,VIYADGRRTAYADKVK,GNNAGTFDV,En_Gen
-0.15,6 of 6,GFSLNSYGIS,VIYSDGRRTFYGDDVK,GRNAGTFDT,GP_Gibbs
1.67,1 of 6,GEDLLEYGIS,VIYADGSRVAYTNAVK,GNLAGAFDV,En_Gibbs
not detected,0 of 6,GFNLDSYGIS,VIYSDGCRTFYGDSVK,CRAAGTFDS,Ctrl
not detected,0 of 6,GFDLQEYGIS,VIYADGQRANAVSQVK,GEQAGGFVL,En_Gibbs
not detected,0 of 6,GNVLDEYGIS,VIYADGMRTSYQQNFK,GQEGDNFVT,En_Gibbs
0.47,6 of 6,GFQLNEYGIS,VIYSDGRRTFYGDSVK,GRMAGTFDS,GP_Gen
-0.33,6 of 6,GFDLNEYGIS,VIYADGQRTFYTDSVK,GGNAGTFDV,En_HC
3.14,2 of 6,GKSLNEYGIS,VIYSDGRRTFYGDDVK,GRTAGTFDS,GP_Gibbs
not detected,0 of 6,GKLLDEYGIS,VIYADGKRMVYANSVK,GNLTDTLLV,En_Gibbs
-0.61,6 of 6,GFDLNEYGIS,VIYADGMRTYYTDSVK,GNVAGTFDV,En_Gen
not detected,0 of 6,GFTLNSYGIS,VIYSDGRRTFYSDSVK,GMAAGTVDS,Ctrl
not detected,0 of 6,GFTLNSYGIS,VIYSDGRRTFYGDSVK,GRAIGTFDY,Ctrl
not detected,0 of 6,GGTLNSYGIS,VIYNDGRRTFWGDSVK,GRAAGTNKS,Rand
not detected,0 of 6,GFTLNSYGIS,VIYADGRRTFYGDSRK,GRAAGTNKS,Rand
1.95,2 of 6,GFDLNEYGIS,VIYADGRRTFYADSVK,GNVAGTFIQ,En_HC
-0.27,6 of 6,GFDLNEYGIS,VIYADGKRTVYADSVK,GQNAGTFDV,En_Gen
1.19,2 of 6,GFTLNSYGIS,VIYSDGRRTFYEDSVK,GRAAGTFDS,Ctrl
-0.21,6 of 6,GFSLNSYGIS,VIYSDGRRTAYSDSVK,GQAAGTFDS,GPLM_Gen
not detected,0 of 6,GFYLDEYGIS,VIYADGQRKVYANNVK,GNFGGLQDY,En_Gibbs
-0.14,6 of 6,GFGLNEYGIS,VIYSDGRRTFYHDSVK,GKTAGTFDS,GP_Gen
not detected,0 of 6,GFDLDEYGVS,VIYADGHRNQYTEDVK,GTNSGAVDM,En_Gibbs
-0.11,6 of 6,GFDLNEYGIS,VIYADGKRTAYSDSVK,GNQAGTFDQ,En_Gen
1.82,3 of 6,GFKLQSYGIS,VIYSDGRRTFYGDSVK,GRAAGTFDS,Ctrl
-0.50,6 of 6,GFDLNEYGIS,VIYADGSRKAYADSVK,GTNAGTFDV,En_Gen
3.16,2 of 6,MFDLNSYGIS,VIYSDGRRTFYSDSVK,GNAAGTFDS,GP_Gen
1.13,6 of 6,GFTNEQYGIS,VIYADGRRTFYGDSVK,GRFAGTFDS,Ctrl
-0.32,6 of 6,GFDLNEYGIS,VIYADGKRTFYADSVK,GQAAGTFDA,En_HC
-0.38,6 of 6,GFDLNEYGIS,VIYADGTRTAYSDSVK,GNVAGTFDV,En_Gen
not detected,0 of 6,GKDINEYGVS,VIYADGKRNAYQNSVK,GKNAGAFVD,En_Gibbs
0.28,12 of 12,GFTLNSYGIS,VIYADGRRTFYGDSVK,GRAAGTFDT,Ctrl+GPLM_Gen
-0.45,6 of 6,GFDLNEYGIS,VIYADGRRTAYADSVK,GNVAGTFDI,En_Gen
-0.37,6 of 6,GFDLDEYGIS,VIYADGMRTFYADSVK,GEAAGTFDS,En_HC
1.55,3 of 6,GFSLDEYGIS,VIYADGRRTFYVDDVK,GNVAGTFDV,En_HC
-0.71,6 of 6,GFDLNEYGIS,VIYADGRRTFYADSVK,GETAGTFDS,En_HC
0.74,6 of 6,GFNLNQYGIS,VIYSDGRRTFYGDSVK,GRAAGTFDS,Ctrl
-0.22,6 of 6,GFSLNSYGIS,VIYSDGRRTFYSDSVK,GSTAGTFDS,GPLM_Gen
not detected,0 of 6,GYTLNEYGIS,VIYSDGRRTFYGDSVK,GRAAGTMDS,Ctrl
not detected,0 of 6,GFDLGSYGIS,VIYRDGRRTFYGDSVK,GRAAGTFDS,Ctrl
0.74,6 of 6,GFTLNSYGIS,VIYSDGRRTFYSDDVK,GEAAGTFDS,GPLM_Gen
-0.77,6 of 6,GFDLDEYGIS,VIYADGRRTFYSDSVK,GGNAGTFDV,En_HC
-0.60,6 of 6,GFDLNEYGIS,VIYADGKRTAYADDVK,GNQAGTFDL,En_Gen
not detected,0 of 6,GFTLNKYGSS,VIYSDGRRTFYGDSVK,GRAAGTFDS,Ctrl
-0.55,6 of 6,GFDLNEYGIS,VIYADGRRTYYADSVK,GNEAGTFDM,En_HC
0.29,6 of 6,GFDLNEYGIS,VIYADGMRTVYADSVK,GNVAGTFDQ,En_Gen
2.08,4 of 6,GFTLNSYGIS,VIYSDGRRTFYTDSVK,GMRAGTFDS,GP_HC
0.79,6 of 6,GFRLNEYGIS,VIYSDGRRTFYGDSVK,GRMAGTFDS,GP_Gibbs
0.04,6 of 6,GFTLNEYGIS,VIYSDGRRTFYGDSVK,GRYAGTFDT,GPLM_Gen
not detected,0 of 6,GFTLNSYGIS,VIYSDGRRTFYGDSVK,GRVAGTFHS,Ctrl

Reference: Li et al. 2023, doi:10.1038/s41467-023-39022-2. File: FLAb, binding data.